From paper PMC3909101, “Chemical Rescue and Inhibition Studies to Determine the Role of Arg301 in Phosphite Dehydrogenase” (PLoS ONE, 2014)

Chains of the proteins cited; added tags and fusions are not shown. Residues count along the entry.
UniProt O69054, 1-329 D13E/M26I/V71I/E130K/Q132R/Q137R/I150F/R301A limits assumed: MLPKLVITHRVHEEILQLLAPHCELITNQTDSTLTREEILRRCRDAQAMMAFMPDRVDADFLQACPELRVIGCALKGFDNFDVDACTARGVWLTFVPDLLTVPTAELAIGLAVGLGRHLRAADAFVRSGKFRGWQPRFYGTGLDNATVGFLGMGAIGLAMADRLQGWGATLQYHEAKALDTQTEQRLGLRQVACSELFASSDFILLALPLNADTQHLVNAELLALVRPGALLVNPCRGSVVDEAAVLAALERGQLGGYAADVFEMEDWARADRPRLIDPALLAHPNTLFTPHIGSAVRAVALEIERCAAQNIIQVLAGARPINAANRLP

Molecular target: 17X-PTDH-R301A (Stutzerimonas stutzeri (Pseudomonas stutzeri), UniProt O69054, D13E/E130K/I150F/M26I/Q132R/Q137R/R301A/V71I, form not given)
Experiment: Chemical rescue experiments with 17X-PTDH-R301A
Type: biochemical, Pseudomonas stutzeri WM88
Details: exogenous reagent; unsuccessful ones tested at 20–100 mM depending on solubility

Structure (SMILES): N=C(N)N[N+](=O)[O-]
- Rescue of activity of the R301A mutant: not observed

This is a selection: effects in other tests are not listed, and their absence says nothing.
